System: souris Swiss
Assay: Oral (intragastric) toxicity, mortality in mice
Assay type: in vivo
Conditions: mouse, solvent as in the source
From the text: La mortalité induite par ces substances a été déterminée chez la souris Swiss exempte d'organismes pathogènes spécifiques. Les animaux sont stabulés en salle climatisée 24 à 48 heures avant le début de l'expérimentation. Les substances sont administrées soit par voie intragastrique en solution dans de l'huile d'olive ou du tween, soit par voie intrapéritonéale en solution dans du tween. Les résultats sont exprimés dans les tableaux I et II par le pourcentage de mortalité en fonction de la dose administrée ou par la dose induisant 50 % de mortalité (DL 50) déterminée par la méthode de Bliss.

(phényl-4pipérazinyléthyl)-2 N-pyridylidène-3 aniline [COR 3412]
% de mortalité en fonction de la dose exprimée en mg/kg (dose 1000 mg/kg): 0-10% | % de mortalité en fonction de la dose exprimée en mg/kg (dose 1500 mg/kg): 0%

Source: EP0078757A1, “Imines of 2-(4-phenyl-piperazinylethyl) anilines, process for their preparation and their use in medicine” (CORTIAL S.A., priority 1981, dated 1983)
